Amino acid sequences for entries named in this document (tags omitted). A change or cut given only in a name is not applied to a line headed by its entry.
UniProt P22303: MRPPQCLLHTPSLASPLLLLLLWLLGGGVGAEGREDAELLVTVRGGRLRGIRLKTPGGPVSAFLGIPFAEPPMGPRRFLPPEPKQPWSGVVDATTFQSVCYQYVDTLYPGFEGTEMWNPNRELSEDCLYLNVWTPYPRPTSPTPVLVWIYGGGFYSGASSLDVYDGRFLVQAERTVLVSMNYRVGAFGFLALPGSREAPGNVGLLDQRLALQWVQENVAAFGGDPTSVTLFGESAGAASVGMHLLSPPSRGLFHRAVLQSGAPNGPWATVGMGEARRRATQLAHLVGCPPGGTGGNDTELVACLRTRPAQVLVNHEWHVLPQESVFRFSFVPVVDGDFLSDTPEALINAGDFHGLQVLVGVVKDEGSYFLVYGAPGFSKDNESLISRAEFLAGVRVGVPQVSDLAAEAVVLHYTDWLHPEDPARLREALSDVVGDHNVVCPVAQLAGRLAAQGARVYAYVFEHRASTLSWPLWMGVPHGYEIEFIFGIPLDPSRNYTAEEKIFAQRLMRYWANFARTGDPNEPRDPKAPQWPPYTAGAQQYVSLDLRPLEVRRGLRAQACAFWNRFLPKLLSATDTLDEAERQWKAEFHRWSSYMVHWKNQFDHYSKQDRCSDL

In ChEMBL document CHEMBL1121722, “Nonquaternary cholinesterase reactivators. Dialkylaminoalkyl thioesters of alpha-ketothiohydroximic acids as reactivators of diisopropyl phosphorofluoridate inhibited acetylcholinesterase” (1981):

Columns and labels:
[1] = biological target: Acetylcholinesterase (Homo sapiens) (UniProt P22303); assay: Ratio of Kr/kmax for reactivation of acetylcholinesterase at concentration of 2M*10e4 [HOX] and 13.3Me-1*10e-3 [OX]e-1 was determined; Expressed as Kr/kmax, M-min*10e2
[2] = biological target: Acetylcholinesterase (Homo sapiens) (UniProt P22303); assay: Ratio of [EOP'']infinity to that of [EOH]infinity for reactivation of acetylcholinesterase at concentration of 12M*10e4 [HOX] and 2.20 Me-1*10e-3 [OX]e-1; Expressed as [EOP'']infinity/[EOH]infinity
[3] = biological target: Acetylcholinesterase (Homo sapiens) (UniProt P22303); assay: Kinetic constant was determined for reactivation of acetylcholinesterase at concentration of 4M*10e4 [HOX] and 6.65Me-1*10e-3 [OX]e-1; (kobsd-ka)e-1, min
[4] = biological target: Acetylcholinesterase (Homo sapiens) (UniProt P22303); assay: Pseudo first order observed rate constants for reactivation of acetylcholinesterase at 6M*10e4 HOX and 2.26M*10e4OX; Kobs (min-1 X 10e3)
[5] = biological target: Acetylcholinesterase (Homo sapiens) (UniProt P22303); assay: Pseudo first order observed rate constants for reactivation of acetylcholinesterase at 0.0800 M*10e4 HOX and 0.0232 M *10e4OX; Kobs (min-1 X 10e3)

`CCN(CC)CCS/C(=N\O)C(=O)c1ccc(OC)cc1` gave a Kr/kmax [1] of 330 M-min, a [EOP']infinity/[EOH]infinity [2] of 0.47 and a 1/kobsd-ka [3] of 353 min. For the same molecule, the k obs [4] was 85.7 s⁻¹.

Work on `C[n+]1ccccc1C=NO` yielded a k obs [5] of 155 s⁻¹.
